Assay results reported in article PMC5050167 (Bioorganic & medicinal chemistry letters, 2016).

By UniProt entry, the sequences of proteins in these tests, tags left out.
UniProt P03070, whole entry: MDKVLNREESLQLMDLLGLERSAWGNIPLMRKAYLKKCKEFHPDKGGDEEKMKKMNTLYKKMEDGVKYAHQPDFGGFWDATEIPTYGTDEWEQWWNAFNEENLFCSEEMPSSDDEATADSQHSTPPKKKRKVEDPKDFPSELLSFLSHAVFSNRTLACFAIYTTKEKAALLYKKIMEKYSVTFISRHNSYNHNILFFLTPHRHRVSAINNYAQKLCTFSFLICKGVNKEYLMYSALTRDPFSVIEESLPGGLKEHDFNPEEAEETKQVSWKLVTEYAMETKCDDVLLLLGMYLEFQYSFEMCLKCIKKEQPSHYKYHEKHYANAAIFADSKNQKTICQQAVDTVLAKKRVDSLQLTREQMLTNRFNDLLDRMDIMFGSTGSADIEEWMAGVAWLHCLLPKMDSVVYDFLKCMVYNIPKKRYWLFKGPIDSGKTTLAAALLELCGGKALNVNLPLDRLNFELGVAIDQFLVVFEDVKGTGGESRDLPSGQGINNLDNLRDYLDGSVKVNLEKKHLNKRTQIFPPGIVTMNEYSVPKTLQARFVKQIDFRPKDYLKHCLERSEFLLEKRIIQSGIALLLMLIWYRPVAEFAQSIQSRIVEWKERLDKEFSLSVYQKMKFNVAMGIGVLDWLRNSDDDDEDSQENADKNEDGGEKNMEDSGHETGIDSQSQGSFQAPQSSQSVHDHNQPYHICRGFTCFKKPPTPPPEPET

Biological target: T antigen (Simian virus 40, UniProt P03070)
Test: ATPase activity of purified T antigen
Type: biochemical, polyomavirus
Conditions: compound 10 μM, normalized to DMSO, mean of 3 experiments

With CC1=C(C(=O)OCc2ccccc2)C(c2ccc(-c3ccccc3C)cc2)NC(=O)N1Cc1ccc(-c2nnn[nH]2)cc1 (stereo not shown) [SMAL] the “Fold change in ATPase activity of T antigen” value was −4.3 fold.
